US11707512B2, “Cancer vaccine composition” (priority 2007, dated 2023)

Assays:
[1] = test system: WT1187 peptide-pulsed B-LCLs
[2] = test system: peptide-pulsed autologous B-LCL cells

CSCC[C@H](NC(=O)[C@@H](N)CCCNC(=N)N)C(=O)N[C@@H](Cc1ccccc1)C(=O)N1CCC[C@H]1C(=O)N[C@@H](CC(N)=O)C(=O)N[C@@H](C)C(=O)N1CCC[C@H]1C(=O)N[C@@H](Cc1ccc(O)cc1)C(=O)N[C@@H](CC(C)C)C(=O)O [WT1126]
inhibition of cytotoxic activity of peptide-specific CTLs by anti-HLA class I antibody [1]: can be inhibited
cytotoxic activity of peptide-induced CTLs against B-LCL cells pulsed with the inducing peptide, compared with non-pulsed B-LCL cells [2]: stronger cytotoxic activity
cytotoxic activity against 0206K562 cells (WT1-expressing, HLA-A*0206-positive) compared with K562 cells (and KH88, JY cells) (0206K562 cells): significant cytotoxic activity
cytotoxic activity against non-WT1-expressing and/or HLA-A*0206-negative cells (0206K562 cells): no cytotoxic activity
